Literature values in patent publication US20180272346A1, “MODULAR ORGAN MICROPHYSIOLOGICAL SYSTEM WITH MICROBIOME” (Massachusetts Institute of Technology, priority 2017, published 2018).

System: 7-way MPS platform (gut, liver and other MPSs)
Settings: dose added to apical side of gut MPS; cited from earlier work

Substance: 4′-hydroxy-DCF [4-OH-DCF]
- absorption and distribution across MPS compartments: detected in all the others MPS compartments
